The IC50 is the midpoint of a concentration-inhibition curve.

Chains of the proteins cited; added tags and fusions are not shown.
UniProt Q99250, whole entry: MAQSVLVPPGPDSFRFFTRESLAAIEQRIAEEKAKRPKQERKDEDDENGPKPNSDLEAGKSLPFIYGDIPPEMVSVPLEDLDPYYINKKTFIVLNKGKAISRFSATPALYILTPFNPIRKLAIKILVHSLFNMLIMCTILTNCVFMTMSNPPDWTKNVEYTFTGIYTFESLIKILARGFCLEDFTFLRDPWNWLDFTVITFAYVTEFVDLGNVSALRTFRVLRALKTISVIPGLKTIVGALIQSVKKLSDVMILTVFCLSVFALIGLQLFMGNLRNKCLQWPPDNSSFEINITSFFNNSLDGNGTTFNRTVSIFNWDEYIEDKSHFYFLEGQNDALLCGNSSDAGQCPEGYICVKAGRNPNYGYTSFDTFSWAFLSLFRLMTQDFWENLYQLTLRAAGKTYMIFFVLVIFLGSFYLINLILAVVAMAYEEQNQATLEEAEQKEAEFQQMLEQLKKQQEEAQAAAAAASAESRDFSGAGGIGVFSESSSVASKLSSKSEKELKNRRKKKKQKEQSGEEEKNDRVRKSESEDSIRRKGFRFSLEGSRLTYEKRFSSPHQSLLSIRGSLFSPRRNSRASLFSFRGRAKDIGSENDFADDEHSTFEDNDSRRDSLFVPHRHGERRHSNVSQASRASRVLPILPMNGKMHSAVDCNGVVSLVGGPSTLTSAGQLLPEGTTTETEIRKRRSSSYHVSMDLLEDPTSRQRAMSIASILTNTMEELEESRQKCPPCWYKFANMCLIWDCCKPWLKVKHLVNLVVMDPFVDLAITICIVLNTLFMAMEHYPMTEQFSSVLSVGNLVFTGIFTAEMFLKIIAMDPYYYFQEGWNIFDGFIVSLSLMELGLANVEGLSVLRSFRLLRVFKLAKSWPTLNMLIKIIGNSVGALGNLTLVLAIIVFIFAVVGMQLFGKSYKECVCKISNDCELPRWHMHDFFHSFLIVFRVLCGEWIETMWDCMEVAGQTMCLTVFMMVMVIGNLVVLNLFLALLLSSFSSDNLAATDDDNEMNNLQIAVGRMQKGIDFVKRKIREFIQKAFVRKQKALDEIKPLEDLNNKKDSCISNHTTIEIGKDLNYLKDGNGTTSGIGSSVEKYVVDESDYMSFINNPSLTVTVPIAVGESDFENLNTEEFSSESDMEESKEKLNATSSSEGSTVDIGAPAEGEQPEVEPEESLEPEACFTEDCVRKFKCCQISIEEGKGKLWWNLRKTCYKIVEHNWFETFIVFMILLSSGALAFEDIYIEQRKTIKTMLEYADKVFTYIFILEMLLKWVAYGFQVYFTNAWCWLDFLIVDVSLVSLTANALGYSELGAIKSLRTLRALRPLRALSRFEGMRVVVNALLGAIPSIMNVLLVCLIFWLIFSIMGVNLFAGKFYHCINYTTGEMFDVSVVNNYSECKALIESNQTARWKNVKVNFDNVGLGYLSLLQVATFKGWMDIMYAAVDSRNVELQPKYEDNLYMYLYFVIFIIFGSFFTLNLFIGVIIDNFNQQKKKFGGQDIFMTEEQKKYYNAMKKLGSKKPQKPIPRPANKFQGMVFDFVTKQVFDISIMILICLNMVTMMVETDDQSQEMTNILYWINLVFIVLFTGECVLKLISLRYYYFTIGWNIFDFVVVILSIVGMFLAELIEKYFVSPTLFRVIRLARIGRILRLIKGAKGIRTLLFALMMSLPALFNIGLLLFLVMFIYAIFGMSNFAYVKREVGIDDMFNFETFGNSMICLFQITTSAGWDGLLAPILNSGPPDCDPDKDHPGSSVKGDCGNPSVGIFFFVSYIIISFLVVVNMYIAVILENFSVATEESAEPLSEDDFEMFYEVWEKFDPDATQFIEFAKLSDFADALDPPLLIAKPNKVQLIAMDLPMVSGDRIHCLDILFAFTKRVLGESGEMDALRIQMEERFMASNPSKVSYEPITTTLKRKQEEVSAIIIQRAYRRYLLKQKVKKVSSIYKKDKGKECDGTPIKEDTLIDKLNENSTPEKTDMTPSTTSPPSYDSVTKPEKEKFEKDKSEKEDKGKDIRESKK

Among the data in patent US10414728B2 (priority 2014, dated 2019) are IC50 values, retold here.

This assay addresses T1, human NaV 1.2 (Homo sapiens, UniProt Q99250).
T1 construct: expressed in transfected cells; host or cells: CHO
As to the kind of experiment: Electrophysiology, IonWorks Barracuda, NaV channel block in CHO cells. The conditions noted are these: Nav1.2, CHO cells, 5 min exposure, ambient temperature. In kind it is cell-based. Here is the method:
Effects on Human NaV 1.1, NaV 1.2, NaV1.3, NaV 1.4, NaV 1.5, NaV 1.6, NaV 1.7 and NaV 1.8/β3 Sodium Channels Expressed in Mammalian Cells
CHO cells were stably transfected with human ion channel cDNAs. Stable transfectants were selected by expression with the antibiotic-resistance gene(s) incorporated into the expression plasmid(s). Selection pressure was maintained by including selection antibiotics in the culture medium. CHO cells were cultured in Ham's F-12 supplemented with 10% fetal bovine serum, 100 U/mL penicillin G sodium, 100 μg/mL streptomycin sulfate and appropriate selection antibiotics. Before testing, cells in culture dishes were washed twice with Hank's Balanced Salt Solution (HB-PS) and treated with Accutase for approximately 20 minutes. Immediately before use in IonWorks Barracuda™, the cells were washed in HB-PS to remove the Accutase and re-suspended in HB-PS. All experiments were performed at ambient temperature. […] Duration of exposure to each test article concentration was five (5) minutes. Inhibition of NaV channels was measured using a stimulus voltage pattern. The pulse pattern was repeated before (baseline) and for five (5) minutes after compound addition. […]
For orientation: The patch-clamp technique gives a direct electrical read-out from membranes.

Like-named read-outs stand apart in the source and are kept apart here.

Regarding `CCN(CC)CC(=O)Nc1c(C)cccc1C` [Lidocaine, reference compound], the IC50 runs as follows: (read-out: IC50 TP1 (tonic)) 496 µM; (read-out: IC50 TP2 (inactivated state)) 411 µM.
